Measured values published in PMC9653265 (Journal of medicinal chemistry, 2022).

Biological target: T1, hP2X4R (Homo sapiens, UniProt Q99571)
T1 sequence (Q99571 1-388): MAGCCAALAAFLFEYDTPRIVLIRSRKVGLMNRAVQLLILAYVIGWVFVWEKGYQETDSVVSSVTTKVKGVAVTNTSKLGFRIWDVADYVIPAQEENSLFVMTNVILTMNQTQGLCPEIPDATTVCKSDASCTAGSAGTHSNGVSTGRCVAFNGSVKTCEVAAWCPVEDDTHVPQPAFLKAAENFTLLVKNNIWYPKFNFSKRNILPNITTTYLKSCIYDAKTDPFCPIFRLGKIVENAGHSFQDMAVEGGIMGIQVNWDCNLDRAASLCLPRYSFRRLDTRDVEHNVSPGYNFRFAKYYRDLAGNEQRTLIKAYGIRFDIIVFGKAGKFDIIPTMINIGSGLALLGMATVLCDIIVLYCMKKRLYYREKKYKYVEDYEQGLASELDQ
Experiment: hP2X4R channel assay
Assay type: cell-based

SMILES: CCN(CC)CC.O=C1CC(=O)N(c2ccnc(-c3noc(=S)[nH]3)c2)c2ccc3ccccc3c2N1 [Compound 21u, 5-(2-(5-Thioxo-4,5-dihydro-1,2,4-oxadiazol-3-yl)pyridin-4-yl)-1,5-dihydro-2H-naphtho[1,2-b][1,4]diazepine-2,4(3H)-dione]
- fold higher activity (potency) at P2X4R than 5: 3 fold

SMILES: Cc1ccc2c3c(ccc2c1)N(c1cccc(-c2noc(=S)[n-]2)c1)C(=O)CC(=O)N3.[Na+] [Compound 22c]
- fold higher hP2X4R IC50 value than 21u: 3 fold

SMILES: Nc1ncnc2c1ncn2[C@@H]1O[C@H](COP(=O)(O)OP(=O)(O)OP(=O)(O)O)[C@H]2OC3(O[C@H]21)C([N+](=O)[O-])=CC(=[N+]([O-])[O-])C=C3[N+](=O)[O-] (stereo partly drawn) [TNP-ATP, 2′,3′-O-Trinitrophenyl-adenosine-5′-triphosphate, reference compound]
- IC50: 2770 nM
